Measured values from patent publication US6962920B2, “Pyrimidine derivatives and methods of making and using these derivatives” (Duquesne University of the Holy Ghost, priority 1992, dated 2005).

Chains of the proteins cited; added tags and fusions are not shown.
UniProt Q920D2, whole entry: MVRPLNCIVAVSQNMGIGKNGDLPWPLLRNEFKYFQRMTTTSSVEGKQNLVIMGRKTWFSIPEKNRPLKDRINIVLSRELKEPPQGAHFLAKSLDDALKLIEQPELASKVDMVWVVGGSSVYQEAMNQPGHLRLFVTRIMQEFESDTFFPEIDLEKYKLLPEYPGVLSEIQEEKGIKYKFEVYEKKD

Experiments:
[1] = molecular target: RL DHFR (Rattus norvegicus, UniProt Q920D2); assay: Inhibition of DHFR from rat liver; format: biochemical
[2] = test system: SK-MEL-28; assay: NCI in vitro anti-cancer activity, Melanoma; conditions: Table 29, Melanoma
[3] = test system: BT-549; assay: NCI in vitro anti-cancer activity, Breast Cancer; conditions: Table 29, Breast Cancer
[4] = test system: OVCAR-5; assay: NCI in vitro anti-cancer activity, Ovarian Cancer; conditions: Table 29, Ovarian Cancer
[5] = test system: K-562; assay: NCI in vitro anti-cancer activity; conditions: Table 29, Leukemia
[6] = test system: NCI-H23; assay: NCI in vitro anti-cancer activity, Non-Small Cell Lung Cancer; conditions: Table 29, Non-Small Cell Lung Cancer
[7] = test system: EKVX; assay: as above
[8] = test system: NCI-H522; assay: as above; conditions: Table 29, Non-Small Cell Lung Cancer
[9] = test system: A549/ATCC; assay: as above; conditions: Table 29, Non-Small Cell Lung Cancer
[10] = test system: HOP-92; assay: as above; conditions: Table 29, Non-Small Cell Lung Cancer
[11] = test system: NCI-H226; assay: as above; conditions: Table 29, Non-Small Cell Lung Cancer
[12] = test system: SF-539; assay: NCI in vitro anti-cancer activity, CNS Cancer; conditions: Table 29, CNS Cancer
[13] = test system: SF-295; assay: NCI in vitro anti-cancer activity, CNS Cancer; conditions: Table 29, CNS Cancer
[14] = test system: SNB-75; assay: NCI in vitro anti-cancer activity, CNS Cancer
[15] = test system: SNB-19; assay: NCI in vitro anti-cancer activity, CNS Cancer; conditions: Table 29, CNS Cancer
[16] = test system: U251; assay: NCI in vitro anti-cancer activity, CNS Cancer; conditions: Table 29, CNS Cancer
[17] = test system: SF-268; assay: NCI in vitro anti-cancer activity, CNS Cancer; conditions: Table 29, CNS Cancer
[18] = test system: UACC-257; assay: NCI in vitro anti-cancer activity, Melanoma; conditions: Table 29, Melanoma
[19] = test system: LOX IMVI; assay: NCI in vitro anti-cancer activity, Melanoma; conditions: Table 29, Melanoma
[20] = test system: MALME-3M; assay: NCI in vitro anti-cancer activity, Melanoma; conditions: Table 29, Melanoma
[21] = test system: SK-MEL-2; assay: NCI in vitro anti-cancer activity, Melanoma; conditions: Table 29, Melanoma
[22] = test system: M14; assay: NCI in vitro anti-cancer activity, Melanoma; conditions: Table 29, Melanoma
[23] = test system: UACC-62; assay: NCI in vitro anti-cancer activity, Melanoma; conditions: Table 29, Melanoma
[24] = test system: MDA-MB-231/ATCC; assay: NCI in vitro anti-cancer activity, Breast Cancer; conditions: Table 29, Breast Cancer
[25] = test system: MDA-N; assay: NCI in vitro anti-cancer activity, Breast Cancer; conditions: Table 29, Breast Cancer
[26] = test system: MCF7; assay: NCI in vitro anti-cancer activity, Breast Cancer; conditions: Table 29, Breast Cancer
[27] = test system: HS 578T; assay: NCI in vitro anti-cancer activity, Breast Cancer; conditions: Table 29, Breast Cancer
[28] = test system: T-47D; assay: NCI in vitro anti-cancer activity, Breast Cancer; conditions: Table 29, Breast Cancer
[29] = test system: MDA-MB-435; assay: NCI in vitro anti-cancer activity, Breast Cancer; conditions: Table 29, Breast Cancer
[30] = test system: SK-MEL-5; assay: NCI in vitro anti-cancer activity, Melanoma; format: cell-based; conditions: Table 29, Melanoma
[31] = test system: ACHN; assay: NCI in vitro anti-cancer activity, Renal Cancer; conditions: Table 29, Renal Cancer
[32] = test system: 786-0; assay: NCI in vitro anti-cancer activity, Renal Cancer; conditions: Table 29, Renal Cancer
[33] = test system: CAKI-1; assay: NCI in vitro anti-cancer activity, Renal Cancer; conditions: Table 29, Renal Cancer
[34] = test system: TK-10; assay: NCI in vitro anti-cancer activity, Renal Cancer; conditions: Table 29, Renal Cancer
[35] = test system: UO-31; assay: NCI in vitro anti-cancer activity, Renal Cancer; conditions: Table 29, Renal Cancer
[36] = test system: RXF 393; assay: NCI in vitro anti-cancer activity, Renal Cancer; conditions: Table 29, Renal Cancer, RXF 393
[37] = test system: SN12C; assay: NCI in vitro anti-cancer activity, Renal Cancer; conditions: Table 29, Renal Cancer
[38] = test system: NCI/ADR-RES; assay: NCI in vitro anti-cancer activity, breast cancer; conditions: Table 29, Breast Cancer, NCI/ADRRES
[39] = test system: PC-3; assay: NCI in vitro anti-cancer activity, Prostate Cancer; conditions: Table 29, Prostate Cancer
[40] = test system: DU-145; assay: NCI in vitro anti-cancer activity, Prostate Cancer; conditions: Table 29, Prostate Cancer
[41] = test system: HCT-15; assay: NCI in vitro anti-cancer activity, Colon Cancer; conditions: Table 29, Colon Cancer
[42] = test system: COLO 205; assay: NCI in vitro anti-cancer activity, Colon Cancer; conditions: Table 29, Colon Cancer
[43] = test system: HCT-116; assay: NCI in vitro anti-cancer activity, Colon Cancer; conditions: Table 29, Colon Cancer
[44] = test system: KM12; assay: NCI in vitro anti-cancer activity, Colon Cancer; conditions: Table 29, Colon Cancer
[45] = test system: HT29; assay: NCI in vitro anti-cancer activity, Colon Cancer; conditions: Table 29, Colon Cancer
[46] = test system: SW-620; assay: NCI in vitro anti-cancer activity, Colon Cancer; conditions: Table 29, Colon Cancer
[47] = test system: A498; assay: NCI in vitro anti-cancer activity, renal cancer; conditions: Table 29, Renal Cancer
[48] = test system: SR; assay: NCI in vitro anti-cancer activity, Leukemia; conditions: Table 29, Leukemia
[49] = test system: RPMI-8226; assay: NCI in vitro anti-cancer activity, Leukemia; conditions: Table 29, Leukemia
[50] = test system: MOLT-4; assay: NCI in vitro anti-cancer activity, Leukemia; conditions: Table 29, Leukemia
[51] = test system: HL-60 (TB); assay: NCI in vitro anti-cancer activity, Leukemia; conditions: Table 29, Leukemia
[52] = test system: CCRF-CEM; assay: NCI in vitro anti-cancer activity, Leukemia; conditions: Table 29, Leukemia, CCRF-CEM
[53] = test system: NCI-H460; assay: NCI in vitro anti-cancer activity, Non-Small Cell Lung Cancer; format: cell-based; conditions: Table 29, Non-Small Cell Lung Cancer
[54] = test system: IGROV1; assay: NCI in vitro anti-cancer activity, Ovarian Cancer; conditions: Table 29, Ovarian Cancer
[55] = test system: OVCAR-3; assay: NCI in vitro anti-cancer activity, Ovarian Cancer; conditions: Table 29, Ovarian Cancer
[56] = test system: SK-OV-3; assay: NCI in vitro anti-cancer activity, Ovarian Cancer; conditions: Table 29, Ovarian Cancer
[57] = test system: OVCAR-4; assay: NCI in vitro anti-cancer activity, Ovarian Cancer; conditions: Table 29, Ovarian Cancer
[58] = test system: OVCAR-8; assay: NCI in vitro anti-cancer activity, Ovarian Cancer; conditions: Table 29, Ovarian Cancer
[59] = test system: HCC-2998; assay: NCI in vitro anti-cancer activity, Colon Cancer; conditions: Table 29, Colon Cancer
[60] = read-out: Inhibitory Concentrations (IC50) RL DHFR, Table 26
[61] = Table 29, Non-Small Cell Lung Cancer

Structure (SMILES): COc1cc(CCc2cn(Cc3ccccc3)c3nc(N)nc(C)c23)cc(OC)c1OC
- % inhibition RL DHFR ([1]; @ 35 μM): 13% @
- GI50 [2]: 11.5 µM
- GI50 [3]: 7.8 µM
- GI50 [4]: 2.6 µM

Structure (SMILES): Nc1nc(N)c2c(-c3ccccc3)coc2n1
- IC50 ([1]; read-out: RL DHFR IC50, Table 16): > 27.9 µM

Structure (SMILES): COc1cccc(CCc2c[nH]c3nc(N)nc(C)c23)c1
- IC50 [1, 60]: 3.7 µM

Structure (SMILES): Nc1nc(N)c2c(CNc3ccc(O)cc3)c[nH]c2n1
- IC50 ([1]; read-out: RL DHFR IC50, Table 7): 4.2 µM

Structure (SMILES): Nc1nc2[nH]cc(CNc3cc(Cl)ccc3Cl)c2c(=O)[nH]1
- IC50 ([1]; read-out: rlDHFR IC50, Table 22): > 25 µM

Structure (SMILES): COc1ccc(CCc2c[nH]c3nc(N)nc(C)c23)cc1
- % inhibition RL DHFR ([1]; @ 11 μM): 49% @
- GI50 [5]: 33.8 µM
- GI50 [6]: > 100 µM
- GI50 [7, 61]: 70.9 µM
- GI50 [8]: 34.4 µM
- GI50 [9]: 54.3 µM
- GI50 [10]: 24.1 µM
- GI50 [11]: > 100 µM
- GI50 [12]: 21.8 µM
- GI50 [13]: 49.7 µM
- GI50 ([14]; Table 29, CNS Cancer, SNB-75): 24.2 µM
- GI50 [15]: 37.4 µM
- GI50 [16]: 30 µM
- GI50 [17]: 37.1 µM
- GI50 [18]: > 100 µM
- GI50 [19]: 73.1 µM
- GI50 [20]: > 100 µM
- GI50 [21]: > 100 µM
- GI50 [22]: > 100 µM
- GI50 [2]: > 100 µM
- GI50 [23]: > 100 µM
- GI50 [24]: 91 µM
- GI50 [25]: 75.5 µM
- GI50 [26]: 61.9 µM
- GI50 [27]: 80.7 µM
- GI50 [28]: 66.4 µM
- GI50 [29]: 59.1 µM
- GI50 [3]: 52.1 µM
- GI50 [30]: > 100 µM
- GI50 [31]: > 100 µM
- GI50 [32]: 44.5 µM
- GI50 [33]: 30.2 µM
- GI50 [34]: > 100 µM
- GI50 [35]: 48.1 µM
- GI50 [36]: 25.6 µM
- GI50 [37]: > 100 µM
- GI50 [38]: 74.4 µM
- GI50 [39]: > 100 µM
- GI50 [40]: > 100 µM
- GI50 [41]: 57.9 µM
- GI50 [42]: > 100 µM
- GI50 [43]: > 100 µM
- GI50 [44]: > 100 µM
- GI50 [45]: > 100 µM
- GI50 [46]: > 100 µM
- GI50 [47]: 52.8 µM
- GI50 [48]: 31.6 µM
- GI50 [49]: 71.6 µM
- GI50 [50]: 17.3 µM
- GI50 [51]: > 100 µM
- GI50 [52]: > 100 µM
- GI50 [53]: 60.2 µM
- GI50 [54]: > 100 µM
- GI50 [55]: > 100 µM
- GI50 [56]: > 100 µM
- GI50 [57]: > 100 µM
- GI50 [58]: 64.4 µM
- GI50 [4]: > 100 µM

Structure (SMILES): Cc1nc(N)nc2[nH]cc(CCc3ccccc3)c12
- IC50 [1, 60]: 6.4 µM
- GI50 [5]: 48.5 µM
- GI50 [6]: > 100 µM
- GI50 ([7]; Non-Small Cell Lung Cancer): selective
- GI50 [7, 61]: 0.0935 µM
- GI50 [8]: 84 µM
- GI50 [9]: 29.6 µM
- GI50 [10]: 63.4 µM
- GI50 [11]: > 100 µM
- GI50 [12]: > 100 µM
- GI50 [13]: 51.2 µM
- GI50 ([14]; SNB-75, CNS Cancer): selective
- GI50 ([14]; Table 29, CNS Cancer, SNB-75): 0.0738 µM
- GI50 [15]: > 100 µM
- GI50 [16]: 44 µM
- GI50 [17]: > 100 µM
- GI50 [18]: 54.2 µM
- GI50 [19]: 51.3 µM
- GI50 [20]: > 100 µM
- GI50 [21]: > 100 µM
- GI50 [22]: 48.3 µM
- GI50 [2]: > 100 µM
- GI50 [23]: > 100 µM
- GI50 [24]: > 100 µM
- GI50 [25]: 41.1 µM
- GI50 [26]: > 100 µM
- GI50 [27]: 5.18 µM
- GI50 [28]: 9.82 µM
- GI50 [29]: > 100 µM
- GI50 [3]: > 100 µM
- GI50 [30]: 69.1 µM
- GI50 [31]: > 100 µM
- GI50 [32]: 39.8 µM
- GI50 [33]: 83.5 µM
- GI50 [34]: 88.7 µM
- GI50 [35]: 21.9 µM
- GI50 [36]: 18.3 µM
- GI50 [37]: 27.3 µM
- GI50 [39]: 33.3 µM
- GI50 [40]: 17.5 µM
- GI50 [41]: 55.3 µM
- GI50 [42]: 66.5 µM
- GI50 [43]: 36 µM
- GI50 [59]: 69 µM
- GI50 [44]: 50.6 µM
- GI50 [45]: 36.7 µM
- GI50 [46]: > 100 µM
- GI50 [47]: > 100 µM
- GI50 [48]: 59.5 µM
- GI50 [49]: 60.2 µM
- GI50 [50]: 20.6 µM
- GI50 [52]: 13.3 µM
- GI50 [53]: 34.5 µM
- GI50 [54]: 59.9 µM
- GI50 [55]: > 100 µM
- GI50 [56]: > 100 µM
- GI50 [57]: 87 µM
- GI50 [58]: 65.6 µM
- GI50 [4]: > 100 µM

Read-outs that look alike come from different tables or passages of the source.
